The target of one assay is rat TAAR1 (Rattus norvegicus (Rat), UniProt Q923Y9). Briefly: Radioligand binding assay on rat TAAR1. The settings on record: rat TAAR1, HEK-293 membranes, second value of cell mouse/rat. As to the method:
(§1) For the construction of expression plasmids the coding sequences of human, rat and mouse TAAR1 were amplified from genomic DNA essentially as described by Lindemann et al.. The Expand High Fidelity PCR System (Roche Diagnostics) was used with 1.5 mM Mg^2+ and purified PCR products were cloned into pCR2.1-TOPO cloning vector (Invitrogen) following the instructions of the manufacturer. PCR products were subcloned into the pIRESneo2 vector (BD Clontech, Palo Alto, Calif.), and expression vectors were sequence verified before introduction in cell lines.
(§2) HEK293 cells (ATCC #CRL-1573) were cultured essentially as described by Lindemann et al. (2005). For the generation of stably transfected cell lines HEK293 cells were transfected with the pIRESneo2 expression plasmids containing the TAAR coding sequences (described above) with Lipofectamine 2000 (Invitrogen) according to the instructions of the manufacturer, and 24 hrs post transfection the culture medium was supplemented with 1 mg/ml G418 (Sigma, Buchs, Switzerland). After a culture period of about 10 d clones were isolated, expanded and tested for responsiveness to trace amines (all compounds purchased from Sigma) with the cAMP Biotrak Enzyme immunoassay (EIA) System (Amersham) following the non-acetylation EIA procedure provided by the manufacturer.
Radioligand Binding Assay on Rat TAAR1
(§3) Membrane Preparation and Radioligand Binding.
HEK-293 cells stably expressing rat TAAR1 were maintained at 37° C. and 5% CO2 in DMEM high glucose medium, containing fetal calf serum (10%, heat inactivated for 30 min at 56° C.), penicillin/streptomycin (1%), and 375 μg/ml geneticin (Gibco). Cells were released from culture flasks using trypsin/EDTA, harvested, washed twice with ice-cold PBS (without Ca^2+ and Mg^2+), pelleted at 1,000 rpm for 5 min at 4° C., frozen and stored at −80° C. Frozen pellets were suspended in 20 ml HEPES-NaOH (20 mM, pH 7.4) containing 10 mM EDTA and homogenized with a Polytron (PT 6000, Kinematica) at 14,000 rpm for 20 s. The homogenate was centrifuged at 48,000×g for 30 min at 4° C. Subsequently, the supernatant was removed and discarded, and the pellet resuspended in 20 ml HEPES-NaOH (20 mM, pH 7.4) containing 0.1 mM EDTA using the Polytron (20 s at 14,000 rpm). This procedure was repeated and the final pellet resuspended in HEPES-NaOH containing 0.1 mM EDTA and homogenized using the Polytron. Typically, aliquots of 2 ml membrane portions were stored at −80° C. With each new membrane batch the dissociation constant (Kd) was determined via a saturation curve. […] Nonspecific binding was defined as the amount of ^3[H]—(S)-4-[(ethyl-phenyl-amino)-methyl]-4,5-dihydro-oxazol-2-ylamine bound in the presence of 10 μM unlabeled ligand. All compounds were tested at a broad range of concentrations (10 pM to 10 μM) in duplicates. […] The 96 deep well plates were incubated for 1 hr at 4° C. Incubations were terminated by rapid filtration through Unifilter-96 plates (Packard Instrument Company) and glass filters GF/C (Perkin Elmer) presoaked for 1 hr in polyethylenimine (0.3%) and washed 3 times with 1 ml of cold binding buffer. After addition of 45 μl of Microscint 40 (PerkinElmer) the Unifilter-96 plate was sealed and after 1 hr the ratioactivity counted using a TopCount Microplate Scintillation Counter (Packard Instrument Company).

By UniProt entry, the sequences of proteins in these tests, tags left out.
UniProt Q923Y9, whole entry: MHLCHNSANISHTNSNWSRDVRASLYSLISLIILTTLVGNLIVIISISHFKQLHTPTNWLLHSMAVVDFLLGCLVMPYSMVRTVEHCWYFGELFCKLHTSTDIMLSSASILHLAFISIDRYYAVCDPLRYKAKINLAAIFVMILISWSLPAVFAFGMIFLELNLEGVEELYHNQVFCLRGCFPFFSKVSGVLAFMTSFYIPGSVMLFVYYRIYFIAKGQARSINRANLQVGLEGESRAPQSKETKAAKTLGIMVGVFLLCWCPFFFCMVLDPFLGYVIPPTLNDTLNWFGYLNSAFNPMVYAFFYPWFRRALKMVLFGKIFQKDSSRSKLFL
UniProt Q923Y8, whole entry: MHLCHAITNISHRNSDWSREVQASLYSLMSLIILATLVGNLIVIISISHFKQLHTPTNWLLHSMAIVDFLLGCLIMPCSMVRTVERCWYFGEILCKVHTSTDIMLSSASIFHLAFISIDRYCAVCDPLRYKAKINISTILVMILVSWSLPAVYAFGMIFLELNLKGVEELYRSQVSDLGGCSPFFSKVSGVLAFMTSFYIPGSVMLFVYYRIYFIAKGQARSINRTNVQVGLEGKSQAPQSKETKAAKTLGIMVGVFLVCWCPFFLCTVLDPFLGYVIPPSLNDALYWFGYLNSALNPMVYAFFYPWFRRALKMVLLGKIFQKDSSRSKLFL

In another assay the target is mouse TAAR1 (Mus musculus (Mouse), UniProt Q923Y8). As to the kind of experiment: Radioligand binding assay on mouse TAAR1. The settings on record: mouse TAAR1, HEK-293 membranes, first value of cell mouse/rat. As to the method:
as §1, §2
Radioligand Binding Assay on Mouse TAAR1
as §3
HEK-293 cells stably expressing mouse TAAR1 were maintained at 37° C. and 5% CO2 in DMEM high glucose medium, containing fetal calf serum (10%, heat inactivated for 30 min at 56° C.), penicillin/streptomycin (1%), and 375 μg/ml geneticin (Gibco). Cells were released from culture flasks using trypsin/EDTA, harvested, washed twice with ice-cold PBS (without Ca^2+ and Mg^2+), pelleted at 1,000 rpm for 5 min at 4° C., frozen and stored at −80° C. Frozen pellets were suspended in 20 ml HEPES-NaOH (20 mM, pH 7.4) containing 10 mM EDTA and homogenized with a Polytron (PT 6000, Kinematica) at 14,000 rpm for 20 s. The homogenate was centrifuged at 48,000×g for 30 min at 4° C. Subsequently, the supernatant was removed and discarded, and the pellet resuspended in 20 ml HEPES-NaOH (20 mM, pH 7.4) containing 0.1 mM EDTA using the Polytron (20 s at 14,000 rpm). This procedure was repeated and the final pellet resuspended in HEPES-NaOH containing 0.1 mM EDTA and homogenized using the Polytron. Typically, aliquots of 2 ml membrane portions were stored at −80° C. With each new membrane batch the dissociation constant (Kd) was determined via a saturation curve. […] After addition of 45 μl of Microscint 40 (PerkinElmer) the Unifilter-96 plate was sealed and after 1 hr the ratioactivity counted using a TopCount Microplate Scintillation Counter (Packard Instrument Company).

Our source for the Ki values is patent publication US9452980B2, “Substituted benzamides” (Hoffmann-La Roche Inc., priority 2009, dated 2016).

As a reminder, the Ki is the dissociation constant of the complex between target and ligand, obtained from inhibition or displacement.

Structures can show the parent of a compound that is named as a salt.

For `C[C@@H](C(=O)Nc1ccc(C2CCNC2)cc1)c1ccccc1` (mixture of isomers) [Example 29, (R)-2-Phenyl-N—((RS)-4-pyrrolidin-3-yl-phenyl)-propionamide], affinity on rat TAAR1 was put at a Ki of 0.0501 µM.

For `C[C@H](C(=O)Nc1ccc(C2CCNC2)cc1)c1ccccc1` (mixture of isomers) [Example 30, (S)-2-Phenyl-N—((RS)-4-pyrrolidin-3-yl-phenyl)-propionamide], the affinity at rat TAAR1, expressed as Ki, was 0.0722 µM.

Compound `CO[C@H](C(=O)Nc1ccc(C2CCNC2)cc1)c1ccccc1` (mixture of isomers) [Example 48, (S)-2-Methoxy-2-phenyl-N—((RS)-4-pyrrolidin-3-yl-phenyl)-acetamide] had a Ki at rat TAAR1 of 0.613 µM.

`CO[C@@H](C(=O)Nc1ccc(C2CCNC2)cc1)c1ccccc1` (mixture of isomers) [Example 49, (R)-2-Methoxy-2-phenyl-N—((RS)-4-pyrrolidin-3-yl-phenyl)-acetamide] yielded a Ki at rat TAAR1 of 1.68 µM.

The compound `CC(C(=O)Nc1ccc(C2CCNC2)cc1)c1ccccc1` (racemic) [Example 25, (RS)-2-Phenyl-N—((RS)-4-pyrrolidin-3-yl-phenyl)-propionamide] had a Ki at rat TAAR1 of 0.0758 µM.

For the compound `O=C(Nc1ccc(C2CCNC2)cc1)N1CCCCC1` (racemic) [Example 28, (RS)-Piperidine-1-carboxylic acid (4-pyrrolidin-3-yl-phenyl)-amide], the affinity at rat TAAR1, expressed as Ki, was 0.473 µM.

On rat TAAR1, `CCN1CCC(c2ccc(NC(=O)c3ccc(Cl)cc3)cc2)C1` (racemic) [Example 33, (RS)-4-Chloro-N-[4-(1-ethyl-pyrrolidin-3-yl)-phenyl]-benzamide] registered an inhibitory constant (Ki) of 0.0545 µM.

On to `O=C(Nc1ccc(C2CCNC2)cc1)OCCc1ccc(F)cc1` (racemic) [Example 46, (RS)-(4-Pyrrolidin-3-yl-phenyl)-carbamic acid 2-(4-fluoro-phenyl)-ethyl ester], for which the inhibition constant Ki on rat TAAR1 and on mouse TAAR1 was 0.0011 µM each time.

As to `COC(C(=O)Nc1ccc(C2CCNC2)cc1)c1ccc(Br)cc1` (racemic) [Example 50, (RS)-2-(4-Bromo-phenyl)-2-methoxy-N—((RS)-4-pyrrolidin-3-yl-phenyl)-acetamide], the Ki on rat TAAR1 turned out to be 0.122 µM.

In turn, `COc1cccc(C(C)C(=O)Nc2ccc(C3CCNC3)cc2)c1` (racemic) [Example 67, (RS)-2-(3-Methoxy-phenyl)-N—((RS)-4-pyrrolidin-3-yl-phenyl)-propionamide] displayed an inhibitory constant (Ki) at rat TAAR1 of 0.0555 µM.

Regarding `CN1CCOC(c2ccc(NC(=O)c3ccc(Cl)cc3)cc2)C1` (racemic) [Example 80, (RS)-4-Chloro-N-[4-(4-methyl-morpholin-2-yl)-phenyl]-benzamide], the Ki on rat TAAR1 stood at 0.742 µM.

On to `CC(C(=O)Nc1ccc(C2CCCNC2)cc1)c1cccc(C(F)(F)F)c1` (racemic) [Example 104, (RS)—N—((RS)-4-Piperidin-3-yl-phenyl)-2-(3-trifluoromethyl-phenyl)-propionamide], for which the figures for the Ki at rat TAAR1 and at mouse TAAR1 were 0.0276 µM and 0.0454 µM, respectively.

`O=C(Nc1ccc(C2CCNC2)cc1)OCCc1ccc(OC(F)(F)F)cc1` (racemic) [Example 125, (RS)-(4-Pyrrolidin-3-yl-phenyl)-carbamic acid 2-(4-trifluoromethoxy-phenyl)-ethyl ester]: the Ki at mouse TAAR1 stood at 0.0003 µM.

`O=C(Nc1ccc(C2CCNC2)cc1)OC1Cc2ccccc2C1` (racemic) [Example 129, (RS)-(4-Pyrrolidin-3-yl-phenyl)-carbamic acid indan-2-yl ester]: the Ki on rat TAAR1 was found to be 0.0062 µM; at mouse TAAR1, 0.004 µM.

On rat TAAR1, `O=C(Nc1ccc(COC2CCNC2)cc1)c1ccc(Cl)cc1` (racemic) [Example 145, (RS)-4-Chloro-N-[4-(pyrrolidin-3-yloxymethyl)-phenyl]-benzamide hydrochloride] returned a Ki of 0.0013 µM.

The compound `O=C(Nc1ccc(C2CNCCO2)cc1)c1ccc(Cl)cn1` (racemic) [Example 148, (RS)-5-Chloro-pyridine-2-carboxylic acid (4-morpholin-2-yl-phenyl)-amide hydrochloride] displayed a Ki on rat TAAR1 of 0.0049 µM.
